Assay results published in ChEMBL document CHEMBL1765045, “Fine-tuning the selectivity of aldosterone synthase inhibitors: structure-activity and structure-selectivity insights from studies of heteroaryl substituted 1,2,5,6-tetrahydropyrrolo[3,2,1-ij]quinolin-4-one derivatives” (J Med Chem, 2011).

Species on record: Homo sapiens
Assay: Selectivity ratio of IC50 for human CYP11B1 to IC50 for human CYP11B2
In short: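 Ratio of IC50 values from V79 MZh cell assays for human CYP11B1 and CYP11B2, IC50 CYP11B1/IC50 CYP11B2. Both assays used [4-14C]-11-deoxycorticosterone, 100 nM, inhibitor at ≥3 concentrations and HPTLC/phosphoimager readout of conversion.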

| Ratio IC50 | Compound |
| --- | --- |
| 44 | O=C1CCc2cc(-c3cncc(-c4ccc(F)cc4)c3)cc3c2N1CC3 |
| 350 | O=C1CCc2cc(-c3cncc(-c4cccc(F)c4)c3)cc3c2N1CC3 |
| 37 | O=C1CCc2cc(-c3cncc(-c4cccc(O)c4)c3)cc3c2N1CC3 |
| 215 | O=C1CCc2cc(-c3cncc(-c4ccc(F)c(F)c4)c3)cc3c2N1CC3 |
| 141 | O=C1CCc2cc(-c3cncc(-c4cccc(C(F)(F)F)c4)c3)cc3c2N1CC3 |
| 129 | O=C1CCc2cc(-c3cncc(-c4cccc(OC(F)(F)F)c4)c3)cc3c2N1CC3 |

The next lines start with the compound.

| Compound | Ratio IC50 |
| --- | --- |
| O=C1CCc2cc(-c3cncc(-c4cc(F)ccc4F)c3)cc3c2N1CC3 | 51 |
| O=C1CCc2cc(-c3cncc(-c4cc(F)cc(F)c4)c3)cc3c2N1CC3 | 97 |
| O=C1CCc2cc(-n3ccnc3)cc3c2N1CC3 | 23 |
| O=C1CCc2cc(-c3cncc(F)c3)cc3c2N1CC3 | 293 |
| COc1cncc(-c2cc3c4c(c2)CCN4C(=O)CC3)c1 | 412 |
| S=C1CCc2cc(-c3cccnc3)cc3c2N1CC3 | 278 |
| COc1ccc(-c2cncc(-c3cc4c5c(c3)CCN5C(=O)CC4)c2)cc1 | 15 |
| O=C1CCc2cc(-c3cncc4ccccc34)cc3c2N1CC3 | 65 |
| CC(C)Oc1cncc(-c2cc3c4c(c2)CCN4C(=O)CC3)c1 | 47 |
| O=C1CCc2cc(-c3cncnc3)cc3c2N1CC3 | 510 |
| COc1cncc(-c2cc3c4c(c2)CCC(=O)N4CCC3)c1 | 606 |
| O=C1CCc2cc(-c3cccnc3)cc3c2N1CCC3 | 957 |
| O=C1CCc2cc(-c3cncc(O)c3)cc3c2N1CC3 | 476 |
| O=C1CCc2cc(-c3cncc(C(F)(F)F)c3)cc3c2N1CC3 | 24 |
| COc1ccccc1-c1cncc(-c2cc3c4c(c2)CCN4C(=O)CC3)c1 | 53 |
